We go through 1 compound from US20120065614A1, “POLYIONIC TRANSITIONAL METAL PHOSPHORESCENT COMPLEX/POLYMER HYBRID SYSTEMS FOR BIOIMAGING AND SENSING APPLICATIONS” (UNIVERSITY OF NORTH TEXAS, priority 2010, published 2012).

Structures are written as SMILES.

The nature of data set [1]: Steady-state photoluminescence spectra (emission/excitation maxima). It is filed as physicochemical. To be noted: aqueous solution of 0.001M. As for the experimental part:
Photoluminescence characterization: All photoluminescence studies were carried with the PTI spectrofluorometer described below. For titrations, 2.5-mL aliquots were placed in the quartz cuvette and 0.1 mL of gel was added at every titration point with magnetic stirring. Titration data were plotted as I/Io vs. volume of gel added (where I=intensity of sample after addition of gel and 1o=intensity of pure aqueous gold phosphor solution). Lifetime data were analyzed using a xenon flash lamp or N2 laser systems for both the sample and a scatterer solution used to generate the instrument response function (IRF) used for deconvolution.
Spectroscopic equipment: Steady-state luminescence spectra were acquired with a PTI QuantaMaster Model QM-4 scanning spectrofluorometer equipped with a 75-watt xenon lamp. The UVN is absorption spectra were measured at 1-nm resolution on either a diode array spectrometer (Hewlett-Packard, model 8543) or a Perkin-Elmer Lambda-900 double-beam UVN is/NIR absorption spectrophotometer.

The conditions of data set [2]: aqueous solution, literature; cited from earlier work.

In turn, `O=S(=O)([O-])c1cccc([PH](c2cccc(S(=O)(=O)[O-])c2)(c2cccc(S(=O)(=O)[O-])c2)[Au]([PH](c2cccc(S(=O)(=O)[O-])c2)(c2cccc(S(=O)(=O)[O-])c2)c2cccc(S(=O)(=O)[O-])c2)[PH](c2cccc(S(=O)(=O)[O-])c2)(c2cccc(S(=O)(=O)[O-])c2)c2cccc(S(=O)(=O)[O-])c2)c1` [Na8[Au(TPPTS)3], tris[tris(3,3′,3″-trisulfonatophenyl)phosphine]aurate(I)] had an emission maximum in data set [1] of 525 nm. Besides, the emission band centre in data set [2] is roughly 515 nm.
